SMILES strings stand for the structures.

The text below walks through data of paper PMC4447534 (ChemMedChem, 2015).

This test deals with T. cruzi (amastigotes). The following applies: selectivity index, Vero cells versus T. cruzi.

Turning to `N#CSCCOc1ccc(Oc2ccccc2)cc1` [WC-9, 4-phenoxyphenoxyethyl thiocyanate, reference compound], the “SI (T. cruzi)” value came to 16.5.
